The record followed here is publication PMC9861744, “Polysulfone Membranes Doped with Human Neutrophil Elastase Inhibitors: Assessment of Bioactivity and Biocompatibility” (Membranes, 2023).

The test addresses T1, Human neutrophil elastase (HNE) (Homo sapiens, UniProt P08246).
T1 construct: gene ELANE
T1 sequence (P08246 30-247): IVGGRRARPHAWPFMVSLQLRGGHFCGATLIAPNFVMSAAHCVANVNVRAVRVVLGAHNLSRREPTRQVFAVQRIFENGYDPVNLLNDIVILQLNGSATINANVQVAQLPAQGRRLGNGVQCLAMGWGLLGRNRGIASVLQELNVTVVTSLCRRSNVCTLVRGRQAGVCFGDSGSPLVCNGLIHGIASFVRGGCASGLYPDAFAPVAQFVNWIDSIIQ
Briefly: fluorometric HNE activity assay with MeO-Suc-Ala-Ala-Pro-Val-AMC, […] min preincubation, […] °C. Type of test: biochemical.

Take `CC(C)(C)C(=O)Oc1ccc(S(=O)(=O)Nc2ccccc2C(=O)NCC(=O)O)cc1` [Sivelestat]: the IC50 – broadly, the point on the concentration scale where inhibition reaches its midpoint – turned out to be 25.7 nM.
